# Earlier results in US20070135390A1, “Phosphate derivatives” (priority 2003, published 2007).
# Conditions: printed as in vitro use; phosphate group is slow to hydrolyse
substance,measurement,value
"Phenol, 2,6-bis(1-methylethyl)-, dihydrogen phosphate (9CI) [propofol phosphate]",release of the parent drug,does not release the parent drug
